These are literature values, as cited in PubChem BioAssay AID1811.

Holding throughout (assay): PubChem AID 1811
In series [1] the target is peroxisome proliferator activated receptor alph. To be noted: PDB complex binding affinities from literature; IC50 when reported.
The target in series [2] is peroxisome proliferator activated receptor gamm. To be noted: PDB complex binding affinities from literature; IC50 when reported.
For series [3], the target named is phenazine biosynthesis protein phzf. Particulars: PDB complex binding affinities from literature; Kd when reported.
For series [4], the target named is neutrophil gelatinase-associated lipocalin. Particulars: PDB complex binding affinities from literature; Kd when reported.
The target of series [5] is beta-n-acetylhexosaminidase. To be noted: PDB complex binding affinities from literature; Ki when reported.
Series [6] has as its target phosphoenolpyruvate phosphomutase. To be noted: PDB complex binding affinities from literature; Ki when reported.
The target in series [7] is beta-hydroxysteroid dehydrogenase. Particulars: PDB complex binding affinities from literature; Ki when reported.
Series [8] concerns the target pyridoxal phosphate biosynthetic protein pdxj. Particulars: PDB complex binding affinities from literature; Kd when reported.
The target in the next series is FK506 binding protein. To be noted: PDB complex binding affinities from literature; Ki when reported.
Series [9] concerns the target nuclear receptor ror-beta. Particulars: PDB complex binding affinities from literature; Ki when reported.
Series [10] concerns the target oxygen-insensitive nad(p)h nitroreductase. Particulars: PDB complex binding affinities from literature; Ki when reported.
The target in another series is metalloproteinase. To be noted: PDB complex binding affinities from literature; Ki when reported.
The target in the next series is mutator mutt protein. Particulars: PDB complex binding affinities from literature; Kd when reported.
In series [11] the target is hiv-1 protease. Particulars: PDB complex binding affinities from literature; Ki when reported.
Series [12] deals with Gag-Pol polyprotein (Pr160Gag-Pol). To be noted: PDB complex binding affinities from literature; Kd when reported.
Series [13] addresses HIV-1 protease. To be noted: PDB complex binding affinities from literature; Ki when reported.
The target of a further series is auxin-binding protein 1. Particulars: PDB complex binding affinities from literature; Kd when reported.
The target in series [14] is glutathione s-transferase. To be noted: PDB complex binding affinities from literature; Kd when reported.
In series [15] the target is glutathione s-transferase class pi. To be noted: PDB complex binding affinities from literature; Kd when reported.
The target of a further series is odorant-binding protein. Particulars: PDB complex binding affinities from literature; Kd when reported.
The target in another series is major urinary protein. To be noted: PDB complex binding affinities from literature; Kd when reported.
Series [16] has as its target cation-independent mannose 6-phosphate receptor. Particulars: PDB complex binding affinities from literature; Kd when reported.
In series [17] the target is cation-dependent mannose-6-phosphate receptor. Particulars: PDB complex binding affinities from literature; Kd when reported.
Series [18] concerns the target aminolevulinic acid dehydratase. Particulars: PDB complex binding affinities from literature; Ki when reported.
Series [19] deals with mannose-binding protein-c. To be noted: PDB complex binding affinities from literature; Ki when reported.
For series [20], the target named is anaerobic ribonucleotide-triphosphate reductase. To be noted: PDB complex binding affinities from literature; Kd when reported.
For another series, the target named is uracil-dna glycosylase. Particulars: PDB complex binding affinities from literature; Ki when reported.
In the next series the target is 1IL9 A. Particulars: PDB complex binding affinities from literature; IC50 when reported.
Another series addresses uridine phosphorylase. To be noted: PDB complex binding affinities from literature; Kd when reported.
A further series has as its target sialidase. Particulars: PDB complex binding affinities from literature; Ki when reported.
Series [21] has as its target hypoxia-inducible factor 1 alpha inhibitor. To be noted: PDB complex binding affinities from literature; Ki when reported.
For a further series, the target named is thrombin pro. Particulars: PDB complex binding affinities from literature; Ki when reported.
A further series has as its target beta-galactosidase. Particulars: PDB complex binding affinities from literature; Ki when reported.
The next series deals with mta/sah nucleosidase. Particulars: PDB complex binding affinities from literature; Ki when reported.
For series [22], the target named is 5'-deoxy-5'-methylthioadenosine phosphorylase. To be noted: PDB complex binding affinities from literature; Ki when reported.
In a further series the target is ornithine decarboxylase. To be noted: PDB complex binding affinities from literature; Ki when reported.
The target of the next series is 6-phosphofructokinase. To be noted: PDB complex binding affinities from literature; Ki when reported.
The target of series [23] is uracil phosphoribosyltransferase. To be noted: PDB complex binding affinities from literature; Kd when reported.

Regarding `CCO[C@@H](Cc1ccc(OCCc2ccc(OS(C)(=O)=O)cc2)cc1)C(=O)O`, the 50% inhibitory concentration (IC50) (commonly the concentration that inhibits the measured activity by half) was 1 µM in series [1] and 0.2 µM in [2]. `Nc1c(O)cccc1C(=O)O`: the Kd – broadly, the free concentration of one partner at which half of the binding sites on the other are occupied at equilibrium, for simple one-to-one binding – in [3] is 1.4 µM. Take `O=C(O)c1cccc(O)c1O`: in series [4], the Kd is 0.0079 µM. As for `CC1=N[C@@H]2[C@@H](O)[C@H](O)[C@@H](CO)O[C@@H]2S1`, the inhibitory constant (Ki) (usually the equilibrium dissociation constant of an inhibitor or competing ligand from its target) in [5] is 0.28 µM.

Regarding `O=C(O)C(=O)CS(=O)(=O)O`, in [6], the inhibitory constant (Ki) was 22 µM.

Take `C[C@]12CC[C@@H]3c4ccc(O)cc4CC[C@H]3[C@@H]1C[C@H](CCCCCCCCC(=O)OC[C@H]1O[C@@H](n3cnc4c(N)ncnc43)[C@H](O)[C@@H]1O)[C@@H]2O`: in [7], the inhibition constant Ki was 0.003 µM. As for `CC(=O)[C@@H](O)[C@H](O)COP(=O)(O)O`, in series [8], the Kd was 54 µM.

For the molecule `COc1cc(C(F)(F)C(=O)N2CCCC[C@H]2C(=O)O[C@@H](CCCc2ccccc2)CCCc2cccnc2)cc(OC)c1OC`, on FK506 binding protein, the inhibition constant Ki was 0.019 µM. With `CC(/C=C/C=C(\C)c1cc(C(C)(C)C)cc(C(C)(C)C)c1)=C\C(=O)O`, the inhibition constant Ki in series [9] was 0.16 µM. For the molecule `O=C(O)c1ccccc1`, the Ki in [10] was 100 µM. For the molecule `NC(=O)CC[C@H](NC(=O)[C@@H]1CCC(=O)N1)C(=O)N[C@@H](Cc1c[nH]c2ccccc12)C(=O)O`, the Ki on metalloproteinase was 169 µM. For the molecule `Nc1nc2c([nH]c(=O)n2[C@H]2C[C@H](O)[C@@H](COP(=O)(O)O)O2)c(=O)[nH]1`, on mutator mutt protein, the Kd is 0.052 µM. For `Cc1cccc(C)c1OCC(=O)N[C@@H](Cc1ccccc1)[C@@H](O)C[C@H](Cc1ccccc1)NC(=O)[C@H](C(C)C)N1CCCNC1=O`, the figures for the Ki at hiv-1 protease [11] and at HIV-1 protease [13] were 1.3 pM and 5 pM, respectively. In addition, in series [12], the dissociation constant (Kd) was 0.031 nM. `O=C(O)Cc1cccc2ccccc12`: the equilibrium dissociation constant (Kd) at auxin-binding protein 1 was 0.15 µM. As to `N[C@@H](CCC(=O)N[C@@H](CS)C(=O)NCC(=O)O)C(=O)O`, the Kd was 90 µM in series [14] and 668 µM in series [15]. Consider `COc1nccnc1CC(C)C`, for which the results for the dissociation constant (Kd) at odorant-binding protein and at major urinary protein were 0.8 µM and 0.3 µM, respectively.

In the case of `O=P(O)(O)OC[C@H]1O[C@H](O)[C@@H](O)[C@@H](O)[C@@H]1O`, the dissociation constant Kd in series [16] was 0.001 µM; in series [17], 8 µM. For `CCCCC(=O)O`, in series [18], the Ki is 2000 µM. Turning to `CC(=O)N[C@@H]1[C@@H](O)[C@H](O)[C@@H](CO)O[C@@H]1O`, the Ki in [19] was 14400 µM. As to `Nc1ncnc2c1ncn2[C@H]1C[C@H](O)[C@@H](COP(=O)(O)OP(=O)(O)OP(=O)(O)O)O1`, in series [20], the Kd was 19 µM. In the case of `O=c1cc[nH]c(=O)[nH]1`, the inhibition constant (Ki) at uracil-dna glycosylase is 0.088 µM. `Cc1nc2c(=O)[nH]c(N)nc2o1`: the 50% inhibitory concentration (IC50) at 1IL9 A was 400 µM.

In the case of `CSC[C@H]1N[C@@H](c2c[nH]c3c(=O)[nH]cnc23)[C@H](O)[C@@H]1O`, the dissociation constant (Kd) at uridine phosphorylase was 0.0027 µM. As to `CC(=O)N[C@H]1[C@H]([C@H](O)[C@H](O)CO)OC(C(=O)O)=C[C@@H]1O`, on sialidase, the Ki is 140 µM. In the case of `O=C(O)C(=O)N[C@H](Cc1ccccc1)C(=O)O`, the inhibition constant Ki in [21] is 83 µM.

Take `NC(N)=NCCCNC(=O)[C@@H]1CCCCN1C(=O)[C@@H](CC1CCCCC1)NCC(=O)O`: the Ki at thrombin pro is 0.0042 µM. Regarding `CC(C)S[C@@H]1O[C@H](CO)[C@H](O)[C@H](O)[C@H]1O`, the inhibitory constant (Ki) on beta-galactosidase was 590 µM.

As for `CSC[C@H]1N[C@@H](c2c[nH]c3c(N)ncnc23)[C@H](O)[C@@H]1O`, the inhibition constant Ki was 0.077 nM at mta/sah nucleosidase and 0.001 µM in [22]. Consider `CN[C@@H]1[C@@H](O)[C@@H](O[C@@H]2[C@@H](O)[C@H](O[C@H]3O[C@H]([C@H](C)O)[C@@H](O)[C@H](O)[C@H]3N)[C@@H](N)C[C@H]2N)OC[C@]1(C)O`, for which the Ki at ornithine decarboxylase was 8000 µM. On to `O=P(O)(O)OC[C@H]1O[C@](O)(CO)[C@@H](O)[C@@H]1O`, for which, at 6-phosphofructokinase, the Ki was 0.11 µM. With `Nc1nc2c(ncn2[C@@H]2O[C@H](COP(=O)(O)OP(=O)(O)OP(=O)(O)O)[C@@H](O)C2O)c(=O)[nH]1` (stereo partly drawn), the Kd in [23] was 465 µM.
